Measured values taken from patent publication US20180209979A1, “METHOD FOR INDIVIDUALIZED CANCER THERAPY” (INSERM (INSTITUT NATIONAL DE LA SANTE ET DE LA RECHERCHE), priority 2015, published 2018).

Tested on: CAL33 cells
Settings: erlotinib 0.1 μmol/L; TRF2 knocked-down with sh2; four days; FIG. 8

For C#Cc1cccc(Nc2ncnc3cc(OCCOC)c(OCCOC)cc23)c1 [erlotinib], the “CAL33 proliferation (MTT)” value was “inhibited CAL33 proliferation”.
